Test results from the supplement of paper PMC11403291.

The chains behind the UniProt entries cited, without tags or fusion partners. Where a name states a change or a piece, a line headed by the entry shows the natural chain unless it says otherwise.
UniProt P53355: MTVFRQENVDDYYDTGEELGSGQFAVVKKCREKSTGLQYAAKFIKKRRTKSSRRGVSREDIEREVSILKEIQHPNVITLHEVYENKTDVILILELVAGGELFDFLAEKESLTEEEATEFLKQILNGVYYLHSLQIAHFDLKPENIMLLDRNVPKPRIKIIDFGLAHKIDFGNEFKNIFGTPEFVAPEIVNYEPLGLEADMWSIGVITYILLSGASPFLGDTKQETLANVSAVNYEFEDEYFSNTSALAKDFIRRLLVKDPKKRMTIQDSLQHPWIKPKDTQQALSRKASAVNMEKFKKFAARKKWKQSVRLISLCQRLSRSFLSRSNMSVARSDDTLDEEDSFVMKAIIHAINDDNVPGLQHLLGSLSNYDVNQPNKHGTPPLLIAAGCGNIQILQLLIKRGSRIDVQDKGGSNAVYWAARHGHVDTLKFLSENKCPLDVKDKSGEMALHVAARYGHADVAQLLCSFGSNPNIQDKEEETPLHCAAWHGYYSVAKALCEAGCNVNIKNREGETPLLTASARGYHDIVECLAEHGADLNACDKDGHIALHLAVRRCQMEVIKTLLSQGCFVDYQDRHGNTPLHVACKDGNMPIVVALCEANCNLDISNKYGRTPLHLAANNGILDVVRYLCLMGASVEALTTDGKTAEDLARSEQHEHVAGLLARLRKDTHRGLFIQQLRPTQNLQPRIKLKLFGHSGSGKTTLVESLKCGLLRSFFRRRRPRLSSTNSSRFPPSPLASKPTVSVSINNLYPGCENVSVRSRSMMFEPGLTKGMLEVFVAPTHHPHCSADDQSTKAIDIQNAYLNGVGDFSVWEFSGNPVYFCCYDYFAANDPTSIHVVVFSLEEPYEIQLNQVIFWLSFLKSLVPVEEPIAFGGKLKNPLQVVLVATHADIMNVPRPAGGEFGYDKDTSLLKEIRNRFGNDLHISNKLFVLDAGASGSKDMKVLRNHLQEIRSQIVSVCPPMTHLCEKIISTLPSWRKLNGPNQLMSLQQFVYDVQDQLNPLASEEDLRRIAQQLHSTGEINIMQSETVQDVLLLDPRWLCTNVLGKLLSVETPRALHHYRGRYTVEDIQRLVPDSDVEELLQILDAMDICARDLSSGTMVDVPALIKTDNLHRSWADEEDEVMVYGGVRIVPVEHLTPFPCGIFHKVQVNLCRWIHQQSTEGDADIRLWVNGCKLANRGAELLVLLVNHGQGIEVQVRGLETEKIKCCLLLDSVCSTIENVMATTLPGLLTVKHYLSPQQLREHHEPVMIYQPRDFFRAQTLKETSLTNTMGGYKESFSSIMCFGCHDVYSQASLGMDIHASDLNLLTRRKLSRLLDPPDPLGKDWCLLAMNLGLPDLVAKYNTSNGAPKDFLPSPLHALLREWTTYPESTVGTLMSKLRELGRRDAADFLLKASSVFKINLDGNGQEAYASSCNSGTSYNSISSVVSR
UniProt P53667: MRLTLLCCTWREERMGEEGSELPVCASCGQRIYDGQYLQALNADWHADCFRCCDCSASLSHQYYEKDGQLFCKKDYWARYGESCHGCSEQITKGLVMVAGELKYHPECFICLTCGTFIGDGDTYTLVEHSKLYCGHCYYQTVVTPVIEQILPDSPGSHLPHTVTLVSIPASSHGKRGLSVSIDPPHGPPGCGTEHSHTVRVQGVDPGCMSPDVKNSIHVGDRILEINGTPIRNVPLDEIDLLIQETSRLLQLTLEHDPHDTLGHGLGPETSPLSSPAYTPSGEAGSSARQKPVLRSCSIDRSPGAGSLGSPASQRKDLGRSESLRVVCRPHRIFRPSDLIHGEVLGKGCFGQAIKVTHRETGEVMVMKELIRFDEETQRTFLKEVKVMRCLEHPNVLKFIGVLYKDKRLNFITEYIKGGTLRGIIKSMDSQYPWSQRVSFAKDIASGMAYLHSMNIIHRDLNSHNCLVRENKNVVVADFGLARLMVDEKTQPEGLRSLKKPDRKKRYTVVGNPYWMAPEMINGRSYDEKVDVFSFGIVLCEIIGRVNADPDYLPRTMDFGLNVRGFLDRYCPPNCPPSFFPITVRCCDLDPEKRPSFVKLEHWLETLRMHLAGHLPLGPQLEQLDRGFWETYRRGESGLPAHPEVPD
UniProt P07948: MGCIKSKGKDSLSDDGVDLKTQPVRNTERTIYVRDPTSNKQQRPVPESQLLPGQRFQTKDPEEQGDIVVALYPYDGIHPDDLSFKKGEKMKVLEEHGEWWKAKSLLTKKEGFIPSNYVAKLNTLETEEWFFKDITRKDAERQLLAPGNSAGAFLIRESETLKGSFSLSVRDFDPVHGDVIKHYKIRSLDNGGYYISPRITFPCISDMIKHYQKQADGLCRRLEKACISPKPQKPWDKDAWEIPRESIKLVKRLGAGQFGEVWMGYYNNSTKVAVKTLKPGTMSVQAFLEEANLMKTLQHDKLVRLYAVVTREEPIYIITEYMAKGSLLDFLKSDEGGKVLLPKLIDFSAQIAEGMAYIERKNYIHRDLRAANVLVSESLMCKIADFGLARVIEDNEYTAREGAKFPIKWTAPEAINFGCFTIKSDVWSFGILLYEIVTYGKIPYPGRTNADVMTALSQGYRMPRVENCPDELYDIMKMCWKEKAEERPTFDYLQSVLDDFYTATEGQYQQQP
UniProt Q8TDX7: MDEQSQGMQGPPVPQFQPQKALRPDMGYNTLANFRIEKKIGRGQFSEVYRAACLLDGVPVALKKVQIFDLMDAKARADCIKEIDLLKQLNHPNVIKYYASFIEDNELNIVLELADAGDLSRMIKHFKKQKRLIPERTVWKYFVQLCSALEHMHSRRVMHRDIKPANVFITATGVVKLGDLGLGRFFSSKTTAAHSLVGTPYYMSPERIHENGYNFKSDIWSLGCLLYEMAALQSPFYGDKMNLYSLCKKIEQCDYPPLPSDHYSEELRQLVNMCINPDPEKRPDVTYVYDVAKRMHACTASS
UniProt O75116: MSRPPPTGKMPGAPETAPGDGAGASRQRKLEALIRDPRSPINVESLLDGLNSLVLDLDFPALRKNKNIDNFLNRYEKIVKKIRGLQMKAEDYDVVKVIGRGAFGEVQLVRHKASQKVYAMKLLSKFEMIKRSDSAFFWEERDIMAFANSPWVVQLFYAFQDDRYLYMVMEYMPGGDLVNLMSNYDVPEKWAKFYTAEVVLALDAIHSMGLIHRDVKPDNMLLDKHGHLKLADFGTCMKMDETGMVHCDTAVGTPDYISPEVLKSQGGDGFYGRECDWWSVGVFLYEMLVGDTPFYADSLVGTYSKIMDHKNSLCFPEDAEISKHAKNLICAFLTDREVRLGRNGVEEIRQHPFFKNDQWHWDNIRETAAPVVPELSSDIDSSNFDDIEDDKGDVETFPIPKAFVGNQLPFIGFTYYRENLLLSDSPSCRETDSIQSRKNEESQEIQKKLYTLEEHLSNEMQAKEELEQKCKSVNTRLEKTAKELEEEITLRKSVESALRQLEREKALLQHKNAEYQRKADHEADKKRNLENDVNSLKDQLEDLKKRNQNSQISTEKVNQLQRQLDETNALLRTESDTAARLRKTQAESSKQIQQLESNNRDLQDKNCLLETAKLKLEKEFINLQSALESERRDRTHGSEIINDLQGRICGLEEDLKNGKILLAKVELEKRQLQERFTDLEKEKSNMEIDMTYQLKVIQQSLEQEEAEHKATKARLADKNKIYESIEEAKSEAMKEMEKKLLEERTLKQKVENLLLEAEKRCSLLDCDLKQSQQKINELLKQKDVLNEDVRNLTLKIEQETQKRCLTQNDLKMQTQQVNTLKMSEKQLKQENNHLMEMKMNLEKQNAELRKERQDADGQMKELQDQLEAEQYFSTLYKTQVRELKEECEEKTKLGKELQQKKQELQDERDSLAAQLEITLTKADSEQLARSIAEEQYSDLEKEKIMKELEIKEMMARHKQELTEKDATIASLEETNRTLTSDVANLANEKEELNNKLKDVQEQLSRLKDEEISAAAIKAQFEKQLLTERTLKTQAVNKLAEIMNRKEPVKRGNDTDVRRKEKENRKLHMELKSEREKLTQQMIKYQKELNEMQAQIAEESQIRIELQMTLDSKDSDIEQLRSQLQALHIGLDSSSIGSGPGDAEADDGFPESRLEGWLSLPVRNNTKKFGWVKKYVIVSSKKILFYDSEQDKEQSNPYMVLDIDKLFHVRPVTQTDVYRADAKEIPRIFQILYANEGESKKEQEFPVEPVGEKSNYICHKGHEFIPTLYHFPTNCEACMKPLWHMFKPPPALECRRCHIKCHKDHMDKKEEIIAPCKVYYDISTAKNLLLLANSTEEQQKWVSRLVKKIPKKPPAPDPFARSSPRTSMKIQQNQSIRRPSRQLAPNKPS

Columns and labels:
Assay in all cases: apparent dissociation constant pKd app (kinobead competition) (-log10(M)); higher = stronger binding
DAPK1 = DAPK1 (UniProt P53355)
GAK = biological target: T1, GAK (UniProt O14976)
T1 sequence (whole entry): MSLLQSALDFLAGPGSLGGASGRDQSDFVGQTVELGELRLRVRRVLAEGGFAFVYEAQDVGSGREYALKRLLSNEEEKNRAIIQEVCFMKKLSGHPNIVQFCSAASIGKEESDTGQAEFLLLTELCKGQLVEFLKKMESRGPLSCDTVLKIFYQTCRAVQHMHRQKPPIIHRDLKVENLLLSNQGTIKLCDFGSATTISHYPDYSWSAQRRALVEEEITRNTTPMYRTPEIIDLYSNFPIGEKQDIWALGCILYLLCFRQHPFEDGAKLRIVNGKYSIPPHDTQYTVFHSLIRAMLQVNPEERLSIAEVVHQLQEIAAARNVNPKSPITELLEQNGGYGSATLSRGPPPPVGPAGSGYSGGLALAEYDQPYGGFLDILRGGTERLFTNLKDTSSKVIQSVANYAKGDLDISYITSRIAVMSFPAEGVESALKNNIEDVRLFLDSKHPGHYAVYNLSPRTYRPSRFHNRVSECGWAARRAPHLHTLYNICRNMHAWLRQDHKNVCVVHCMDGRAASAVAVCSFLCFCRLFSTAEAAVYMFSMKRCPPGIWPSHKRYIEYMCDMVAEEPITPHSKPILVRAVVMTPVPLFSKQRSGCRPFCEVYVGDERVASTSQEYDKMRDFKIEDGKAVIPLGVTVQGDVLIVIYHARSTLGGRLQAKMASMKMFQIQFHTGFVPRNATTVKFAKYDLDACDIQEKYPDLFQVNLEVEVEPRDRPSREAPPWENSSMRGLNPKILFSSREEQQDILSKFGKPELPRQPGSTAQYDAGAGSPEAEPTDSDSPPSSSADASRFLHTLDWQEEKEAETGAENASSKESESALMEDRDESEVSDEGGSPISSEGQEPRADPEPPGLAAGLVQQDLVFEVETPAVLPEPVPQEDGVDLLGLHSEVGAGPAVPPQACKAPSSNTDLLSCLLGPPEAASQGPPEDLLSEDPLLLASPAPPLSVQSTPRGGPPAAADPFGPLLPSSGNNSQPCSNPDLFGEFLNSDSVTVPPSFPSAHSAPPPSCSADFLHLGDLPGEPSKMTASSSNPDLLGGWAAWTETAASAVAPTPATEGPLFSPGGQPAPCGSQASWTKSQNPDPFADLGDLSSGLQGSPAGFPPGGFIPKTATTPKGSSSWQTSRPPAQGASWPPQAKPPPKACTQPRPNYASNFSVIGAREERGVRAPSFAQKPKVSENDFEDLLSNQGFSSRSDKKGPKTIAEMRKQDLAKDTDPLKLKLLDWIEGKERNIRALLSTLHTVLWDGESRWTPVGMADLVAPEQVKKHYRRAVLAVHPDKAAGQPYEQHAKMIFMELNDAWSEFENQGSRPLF

LIMK1 = LIMK1 (UniProt P53667)
LYN = LYN (UniProt P07948)
MAP2K5 = biological target: T2, MAP2K5 (UniProt Q13163)
T2 sequence (whole entry): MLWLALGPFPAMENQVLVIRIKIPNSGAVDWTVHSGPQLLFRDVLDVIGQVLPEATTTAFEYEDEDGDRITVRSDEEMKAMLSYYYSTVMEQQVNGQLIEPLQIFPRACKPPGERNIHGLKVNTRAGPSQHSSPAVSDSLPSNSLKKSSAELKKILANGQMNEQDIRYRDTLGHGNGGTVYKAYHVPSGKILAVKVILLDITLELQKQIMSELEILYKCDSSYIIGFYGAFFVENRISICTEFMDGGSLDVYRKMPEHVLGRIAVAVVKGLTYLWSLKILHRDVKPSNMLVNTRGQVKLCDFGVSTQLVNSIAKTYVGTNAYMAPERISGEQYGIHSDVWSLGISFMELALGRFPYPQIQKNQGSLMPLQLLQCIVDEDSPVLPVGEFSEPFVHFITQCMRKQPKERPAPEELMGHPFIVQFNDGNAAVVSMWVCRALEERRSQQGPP

MARK4 = biological target: T3, MARK4 (UniProt Q96L34)
T3 sequence (whole entry): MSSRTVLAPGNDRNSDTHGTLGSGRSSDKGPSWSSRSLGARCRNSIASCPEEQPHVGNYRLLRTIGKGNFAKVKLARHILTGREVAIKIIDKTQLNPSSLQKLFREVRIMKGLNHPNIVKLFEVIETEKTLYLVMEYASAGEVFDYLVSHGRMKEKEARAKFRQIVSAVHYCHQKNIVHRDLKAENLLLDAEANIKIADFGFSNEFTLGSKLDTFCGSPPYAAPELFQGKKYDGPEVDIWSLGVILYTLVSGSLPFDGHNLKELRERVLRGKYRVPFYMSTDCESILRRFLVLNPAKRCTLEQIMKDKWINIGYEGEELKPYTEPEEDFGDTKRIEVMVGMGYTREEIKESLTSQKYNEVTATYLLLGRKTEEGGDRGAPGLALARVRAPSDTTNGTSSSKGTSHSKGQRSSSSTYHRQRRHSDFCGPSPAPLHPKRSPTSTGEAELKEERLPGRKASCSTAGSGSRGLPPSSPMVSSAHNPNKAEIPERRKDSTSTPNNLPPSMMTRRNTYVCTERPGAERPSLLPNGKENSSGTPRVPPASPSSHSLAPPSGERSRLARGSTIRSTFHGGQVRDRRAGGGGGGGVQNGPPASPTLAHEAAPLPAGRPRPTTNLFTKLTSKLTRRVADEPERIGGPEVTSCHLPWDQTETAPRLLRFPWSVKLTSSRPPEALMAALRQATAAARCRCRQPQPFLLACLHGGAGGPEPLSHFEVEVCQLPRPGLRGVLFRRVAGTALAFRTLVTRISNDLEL

NEK7 = NEK7 (UniProt Q8TDX7)
ROCK2 = ROCK2 (UniProt O75116)
STK39 = STK39 (UniProt Q9UEW8)

| apparent dissociation constant pKd app (-log10) (DAPK1) | apparent dissociation constant pKd app (-log10) (GAK) | apparent dissociation constant pKd app (-log10) (LIMK1) | apparent dissociation constant pKd app (-log10) (LYN) | apparent dissociation constant pKd app (-log10) (MAP2K5) | apparent dissociation constant pKd app (-log10) (MARK4) | apparent dissociation constant pKd app (-log10) (NEK7) | apparent dissociation constant pKd app (-log10) (ROCK2) | apparent dissociation constant pKd app (-log10) (STK39) | SMILES |
| --- | --- | --- | --- | --- | --- | --- | --- | --- | --- |
| < 4.5 | < 4.8 | < 4.6 | < 4.7 | < 4.6 | < 4.6 | < 4.5 | < 4.5 | < 4.5 | O=C(c1cc(Cc2n[nH]c(=O)c3ccccc23)ccc1F)N1CCN(C(=O)C2CC2)CC1 [Olaparib] |
| < 4.5 | < 4.8 | < 4.6 | < 4.7 | < 4.6 | < 4.6 | < 4.5 | < 4.5 | < 4.5 | NC(=O)c1cccc2cn(-c3ccc([C@@H]4CCCNC4)cc3)nc12 [Niraparib] |
| < 4.5 | < 4.8 | < 4.6 | < 4.7 | < 4.6 | < 4.6 | < 4.5 | < 4.5 | < 4.5 | Cn1ncnc1[C@H]1c2n[nH]c(=O)c3cc(F)cc(c23)N[C@@H]1c1ccc(F)cc1 [Talazoparib] |
